Measured values taken from patent US20250312474A1, “ANTHRACYCLINS AND CONJUGATES THEREOF” (priority 2022, published 2025).

Key:
BT-474 (Her2 3+) cells = assay: In vitro cytotoxicity of ADCs, Example c3 (resazurin cell viability, 5 days); format: cell-based; conditions: ADC, 5 days incubation, 1 pM to 10 nM
Procedure: (§1) BT-474 (Her2 3+), SK-OV-3 (Her2 3+) and MDA-MB-231 (Her2-) cells were plated in 96-well plates (5000 cells/well) in RPMI-1640 GlutaMAX (Invitrogen) supplemented with 10% fetal bovine serum (FBS) (Invitrogen, 150 μL/well) and incubated overnight in a humidified atmosphere at 37° C. and 5% CO2. ADCs were added in triplo in a square root of 10-fold dilution series to obtain a final concentration ranging from 1 pM to 10 nM and a final volume of 200 µL/well. The cells were incubated for 5 days in a humidified atmosphere at 37° C. and 5% CO2. The culture medium was replaced by 0.01 mg/mL resazurin (Sigma Aldrich) in RPMI-1640 GlutaMAX supplemented with 10% FBS (200 μL/well). After 4 hours in a humidified atmosphere at 37° C. and 5% CO2 the fluorescence was detected with a fluorescence plate reader (Infinite® M1000 Tecan) at 560 nm excitation and 590 nm emission. The relative fluorescent units (RFU) were normalized to cell viability percentage by setting wells without cells at 0% viability and wells with untreated cells at 100% viability. Viability was plotted using Graphpad prism software (see FIG. 21). IC50 values for ADCs on SKOV-3, N87 and JIMT-1 were calculated by non-linear regression using Graphpad prism software and are shown in the table below.

NCI-N87 cells = assay: In vitro cytotoxicity of free payloads (resazurin cell viability, 3 days); format: cell-based; conditions: Homo sapiens, NCI-N87, 72 h, read-out: IC50 NCI-N87 (HER2 3+)
Procedure: SK-OV-3, NCI-N87, JIMT-1 and MDA-MB-231 cells were plated in 96-well plates (5000 cells/well) in RPMI-1640 GlutaMAX (Invitrogen) supplemented with 10% fetal bovine serum (FBS) (Invitrogen, 150 μL/well) and incubated overnight in a humidified atmosphere at 37° C. and 5% CO2. Compounds 6a, 6b, 6c, 6d and 6e were added in triplo in a square root of 10-fold dilution series to obtain a final concentration ranging from 1 pM to 10 nM (for SK-OV-3 and NCI-N87) or 10 pM to 100 nM (for JIMT-1 and MDA-MB-231) and a final volume of 200 μL/well. The cells were incubated for 3 days in a humidified atmosphere at 37° C. and 5% CO2. The culture medium was replaced by 0.01 mg/mL resazurin (Sigma Aldrich) in RPMI-1640 GlutaMAX supplemented with 10% FBS (200 μL/well). After 4 hours in a humidified atmosphere at 37° C. and 5% CO2 the fluorescence was detected with a fluorescence plate reader (Infinite® M1000 Tecan) at 560 nm excitation and 590 nm emission. The relative fluorescent units (RFU) were normalized to cell viability percentage by setting wells without cells at 0% viability and wells with untreated cells at 100% viability. Viability was plotted using Graphpad prism software (see FIG. 20).

SK-OV-3 (Her2 3+) cells [1] = assay: In vitro cytotoxicity of ADCs, Example c3 (resazurin cell viability, 5 days); format: cell-based; conditions: ADC, 5 days incubation, 1 pM to 10 nM
Procedure: as §1

MDA-MB-231 (Her2-) cells = assay: as above; format: cell-based; conditions: ADC, 5 days incubation, 1 pM to 10 nM
Procedure: as §1

MDA-MB-231 (Her2−) cells = assay: In vitro cytotoxicity of ADCs, Example c2 (resazurin cell viability, 5 days); format: cell-based; conditions: ADC, 5 days incubation, 1 pM to 10 nM
Procedure: as §1, with “SK-OV-3 (Her2” for “BT-474 (Her2”, “3+), NCI-N87” for “3+), SK-OV-3”, “(Her2 3+), JIMT-1 (Her2 1+)” for “(Her2 3+)”, “MDA-MB-231 (Her2−)” for “MDA-MB-231 (Her2-)”, “FIG. 17).” for “FIG. 21).”

SK-OV-3 (Her2 3+) cells [2] = assay: as above; format: cell-based; conditions: ADC, 5 days incubation, 1 pM to 10 nM
Procedure: as §1, with “SK-OV-3 (Her2” for “BT-474 (Her2”, “3+), NCI-N87” for “3+), SK-OV-3”, “(Her2 3+), JIMT-1 (Her2 1+)” for “(Her2 3+)”, “MDA-MB-231 (Her2−)” for “MDA-MB-231 (Her2-)”, “FIG. 17).” for “FIG. 21).”

NCI-N87 (Her2 3+) cells = assay: as above; format: cell-based; conditions: ADC, 5 days incubation, 1 pM to 10 nM
Procedure: as §1, with “SK-OV-3 (Her2” for “BT-474 (Her2”, “3+), NCI-N87” for “3+), SK-OV-3”, “(Her2 3+), JIMT-1 (Her2 1+)” for “(Her2 3+)”, “MDA-MB-231 (Her2−)” for “MDA-MB-231 (Her2-)”, “FIG. 17).” for “FIG. 21).”

JIMT-1 (Her2 1+) cells = assay: as above; format: cell-based, human; conditions: ADC, 5 days incubation, 1 pM to 10 nM
Procedure: as §1, with “SK-OV-3 (Her2” for “BT-474 (Her2”, “3+), NCI-N87” for “3+), SK-OV-3”, “(Her2 3+), JIMT-1 (Her2 1+)” for “(Her2 3+)”, “MDA-MB-231 (Her2−)” for “MDA-MB-231 (Her2-)”, “FIG. 17).” for “FIG. 21).”

Row | Compound | IC50 (BT-474 (Her2 3+) cells) [nM] | IC50 (SK-OV-3 (Her2 3+) cells [2]) [nM] | IC50 (NCI-N87 (Her2 3+) cells) [nM] | IC50 (JIMT-1 (Her2 1+) cells) [nM] | further results
1 | trast-63a | 0.196 |  |  |  | 
2 | COc1cccc2c1C(=O)c1c(O)c3c(c(O)c1C2=O)C[C@@](O)(C(=O)CO)C[C@@H]3O[C@H]1C[C@H]2[C@H](O[C@@H]3[C@@H](OCCN=[N+]=[N-])OCCN32)[C@H](C)O1 [Compound 6b] |  |  |  |  | IC50 (NCI-N87 cells): 0.224 nM
3 | trast-9g [reference compound] | 0.043 | 0.097 | 0.039 | 0.046 | IC50 (SK-OV-3 (Her2 3+) cells [1]): 0.057 nM; IC50 MDA-MB-231 (HER2−) (MDA-MB-231 (Her2-) cells): No IC50; IC50 MDA-MB-231 (HER2−) (MDA-MB-231 (Her2−) cells): No IC50
4 | trast-9c |  | 0.211 | 0.179 | 0.145 | 
5 | trast-9d |  | 0.287 | 0.207 |  | 
6 | trast-63b | 0.39 |  |  |  | IC50 SK-OV-3 (HER2 3+) (SK-OV-3 (Her2 3+) cells [1]): No IC50; IC50 SK-OV-3 (HER2 3+) (SK-OV-3 (Her2 3+) cells [1]; listed as trast-6b): no accurate IC50 value could be calculated
7 | trast-75 |  |  |  |  | IC50 (SK-OV-3 (Her2 3+) cells [1]): 0.149 nM
8 | trast-36 |  |  | 0.086 | 0.015 | 
